Data from patent US12240815B2, “Potent and selective human neuronal nitric oxide synthase inhibitors” (Northwestern University, priority 2020, dated 2025).
Read-outs that look alike come from different tables or passages of the source.

Legend:
[1] = 17 h, 200 μM, pH 7.5
[2] = PAMPA-BBB assay; conditions: Table 1; 200 μM, PBS pH 7.5, 25° C., 17 h; average of triplicate ± SD

With `Cc1cc(N)nc(CCc2cc(F)cc(C#CCN(C)C)c2)c1` [Compound 3, 6-(3-(3-(dimethylamino)prop-1-yn-1-yl)-5-fluorophenethyl)-4-methylpyridin-2-amine] the “Pe, effective permeability in PAMPA-BBB assay” value (“Pe, effective permeability” below) [1] was 18.8 10^−6 cm · s^−1.
In the case of `CNCC#Cc1cc(F)c(F)c(CCc2cc(C)cc(N)n2)c1` [Compound 15, 6-(2,3-difluoro-5-(3-(methylamino)prop-1-yn-1-yl)phenethyl)-4-methylpyridin-2-amine], the “Pe, effective permeability” value [1] is reported as “ca. 18 10^−6 cm · s^−1”.
For `Cc1cc(N)nc(CCc2cc(C#CCN(C)C)cc(F)c2F)c1` [Compound 16, 6-(5-(3-(dimethylamino)prop-1-yn-1-yl)-2,3-difluorophenethyl)-4-methylpyridin-2-amine], the “Pe, effective permeability” value [2] was “ca. 18 10^−6 cm · s^−1”.
With `CCO[C@@H]1C[C@H](CCc2cc(F)c(F)c(CCc3cc(C)cc(N)n3)c2)N(C)C1` [Compound 20, 6-(5-(2-((2S,4R)-4-ethoxy-1-methylpyrrolidin-2-yl)ethyl)-2,3-difluorophenethyl)-4-methylpyridin-2-amine] the “Pe, effective permeability” value [2] was 17.7 10^−6 cm · s^−1.
